Reference: patent US11052157B2 (priority 2014, dated 2021)

Experiment: Solubility in water

## 2′-B-alanyl taxol formate [TF.Pac]
  solubility: at least 2 mg/ml
